In patent US20040048790A1:

Key:
HLA-A*0201 (human) = experiment: 125I-probe peptide inhibition, purified HLA
HLA-A*0206 (human) = experiment: 125I-probe peptide inhibition, purified HLA

- IC50 (HLA-A*0201 (human)): 1.32 µM
- IC50 (HLA-A*0206 (human)): 4.62 µM
Substance: p53.129 (10-mer) (peptide)
